Patent EP1351565B1, “CHEMICAL INHIBITORS OF MISMATCH REPAIR” (Morphotek, Inc., priority 2001, dated 2002)

System: H36pCAR-OF cell line
Assay: H36pCAR-OF screening assay (MMR-sensitive β-galactosidase reporter)
Assay type: cell-based, murine

## CN(N=O)C(=N)N[N+](=O)[O-]
  MI and/or shifting of the polynucleotide tract in the pCAR-OF reporter (β-galactosidase positive cells): did not result in MI
